The numbers were not newly measured in patent US9061077B2, “Methods of determining renal function using technetium-99m tricarbonyl-nitrilotriacetic acid” (Emory University, priority 2008, dated 2015), which cites them from elsewhere.

For this data set the following is noted: literature; cited from earlier work.

For the molecule `O=C(O)CN(CC(=O)O)CC(=O)O` [NTA, nitrilotriacetic acid], the Teratogenicity / genotoxicity result was “not been found to be teratogenic or genotoxic”.
